The test system of the assay is 3T3 L1 adipocytes. Put plainly: Lipolysis (glycerol and FFA accumulation) in 3T3 L1 adipocytes. It counts as cell-based, murine. Particulars: 4 hours. The procedure: 3T3 L1 adipocytes were treated with TSH and the non-specific β-adrenoreceptor agonist isoproterenol for 4 hours. Lipolysis was assessed by the accumulation of glycerol and FFAs in the conditioned medium.
Free fatty acids were measured using the Wako NEFA C kit (Wako Chemicals GmbH, Neuss, Germany) for quantitative determination of non-esterified (or free) fatty acids with a modified protocol. Isoproterenol (ICN), a lipolysis-inducing positive control, was diluted to a starting concentration of 2 μM in assay medium (Life Technologies low glucose DMEM, 1 mM sodium pyruvate, 2 mM L-glutamine, 20 mM HEPES, and 0.5% BSA). The isoproterenol was further diluted in half log serial dilutions. TSH was serially diluted down to 0.06 nM. The medium was removed from 3T3 L1 adipocytes in 96-well plates. 50 μl of assay medium were added to each well, followed by 50 μl of TSH or isoproterenol to each well. The plates were incubated for 4 hours at 37° C. 40 μl of conditioned medium were collected for glycerol assay analysis, and 40 μl of conditioned medium were collected for free fatty acid analysis. Oleic acid (Sigma) was dissolved in methanol and used as a reference for determining the amount of free fatty acids in the conditioned media. Wako reagents A and B were reconstituted to 4× the recommended concentration. Conditioned media samples were assayed in 96-well plates. 50 μl of Wako reagent A were added to 5 μl of oleic acid standard plus 40 μl of assay medium. 50 μl of Wako reagent A were added to 40 μl of conditioned medium from differentiated 3T3 L1 cells and 5 μl of methanol. The 96-well plates were incubated at 37° C. for 10 minutes. 100 μl of Wako reagent B were added to each well. The 96-well plates were incubated at 37° C. for 10 minutes. The 96-well plates were then allowed to sit at room temperature for 5 minutes. The 96-well plates were centrifuged in a Beckman Coulter Allegra 6R centrifuge at 3250×g for 5 minutes to remove air bubbles. The absorbance at 530 nm was measured on the Wallac Victor2 Multilabel counter.
Glycerol was measured in conditioned media using the Sigma Triglyceride (GPO-Trinder) kit with a modified protocol. Isoproterenol was diluted to a starting concentration of 2 μM. The isoproterenol was further diluted in half log serial dilutions. TSH was diluted to starting concentrations of 300 nM in assay medium. TSH was then serially diluted down to 0.06 nM. Medium was removed from 3T3 L1 adipocytes in 96-well plates. 50 μl of assay medium were added to each well, followed by 50 μml of TSH or isoproterenol to each well. The plates were incubated for 4 hours at 37° C. […] The absorbance at 530 nm was measured on the Wallac Victor2 Multilabel counter.

With “TSH: ~30 kDa glycoprotein of two non-covalently linked alpha and beta subunits; Thyrogen, Genzyme Corporation”, where the note is “3T3-L1 adipocytes”, the “concentration at which lipolysis is significantly stimulated” value turned out to be 1 nM; the “concentration producing near maximal levels of extracellular glycerol and FFA” value was determined as 10 nM; the “maximal lipolysis relative to that produced by isoproterenol” value is “approximately 50%”. The “stimulation of lipolysis” value (3T3 L1 adipocytes, glycerol and FFA) is given as “potently stimulated lipolysis”.

The values above are taken from patent US20040176294A1, “Use of thyroid-stimulating hormone to induce lipolysis” (priority 2003, published 2004).
